{"source": "paper PMC5940271", "target": "HLA-A*02:01 MHC class I monomer (heavy chain and β2-microglobulin)", "experiment": "mass spectrometry of peptides eluted from MHC I after exchange", "data": [{"substance": "[…] (EBV BMLF-1-A2) (peptide)", "values": [{"measurement": "efficiency of exchange (peptide eluted from MHC I, MS)", "result": 70.7, "unit": "%"}]}]}
